{
  "source": "paper PMC10853778",
  "about": "(Nucleic Acids Research, 2022)",
  "molecular_target": "T1, full-length human RPA trimeric complex (RPA70, RPA32, RPA14), recombinant (human, UniProt P27694 1-616; P15927 1-270; P35244 1-121)",
  "T1 construct": "RPA70 (RPA1) subunit, human; RPA32 (RPA2) subunit, human; RPA14 (RPA3) subunit, human; also called trimeric RPA; source: E. coli BL21(DE3), p11d-tRPA plasmid, purified (Affi-gel blue, hydroxyapatite, Q column); copies: + +",
  "test": "NMR titration; 15N-labelled HHD1+2 titrated with unlabelled RPA trimer; 1H-15N 2D TROSY-HSQC, 25°C; RPA dialysed in 20 mM Tris-HCl pH 7.4, 100 mM NaCl, 2 mM DTT",
  "settings": "both partners purified",
  "data": [
    {"binder": "RTEL1 tandem harmonin homology domains HHD1+2 (residues 886-1140) (domain or fragment, human, UniProt Q9NZ71-6 886-1140, looked up, RTEL1, human, residues 886-1140 (HHD1, linker, HHD2) of Uniprot Q9NZ71-6; pET-28a(+), NdeI/XhoI; uniformly 15N-labelled where it was the observed partner; also called HHD1-linker-HHD2; source: E. coli Rosetta (DE3), purified (Ni-NTA, heparin, SEC); not shown: His6, N-terminal, kept) EPVAGAQTDRAKLFMVAVKQELSQANFATFTQALQDYKGSDDFAALAACLGPLFAEDPKKHNLLQGFYQFVRPHHKQQFEEVCIQLTGRGCGYRPEHSIPRRQRAQPVLDPTGRTAPDPKLTVSTAAAQQLDPQEHLNQGRPHLSPRPPPTGDPGSQPQWGSGVPRAGKQGQHAVSAYLADARRALGSAGCSQLLAALTAYKQDDDLDKVLAVLAALTTAKPEDFPLLHRFSMFVRPHHKQRFSQTCTDLTGRPY", "values": [
      {"measurement": "binding result", "result": "binds"}
    ]}
  ]
}
